Reference: article PMC6270991, “Design and Synthesis of Thiazolo[5,4-f]quinazolines as DYRK1A Inhibitors, Part I” (Molecules, 2014)

Molecular target: DYRK1A (Rattus norvegicus, UniProt Q63470)
Experiment: DYRK1A in vitro kinase assay (33P-ATP, Woodtide substrate)
Format: biochemical
Description: Buffer A: MgCl2 (10 mM), 1 mM ethylene glycol-bis(2-aminoethylether)-N,N,N',N'-tetraacetic acid (EGTA), 1 mM dithiothreitol (DTT), 25 mM Tris-HCl pH 7.5, 50 μg heparin/mL.
Controls were performed with appropriate dilutions of dimethylsulfoxide (DMSO). IC50 values were calculated from dose-response curves established by Sigma-Plots. The GSK-3, CK1, DYRK1A and CLK1 peptide substrates were obtained from Proteogenix (Oberhausbergen, France).
CDK5/p25. (Human, recombinant) was prepared as previously described. […] ATP (3000 Ci/mmol; 10 mCi/mL) in a final volume of 30 μL. After 30 min incubation at 30 °C, 25 μL aliquots of supernatant were spotted onto sheets of Whatman P81 phosphocellulose paper, and 20 s later, the filters were washed eight times (for at least 5 min each time) in a solution of 10 mL phosphoric acid/L of water. The wet filters were counted in the presence of 1 mL ACS (Amersham) scintillation fluid.

IC50 [nM]	SMILES
40	COC(=N)c1nc2ccc3ncnc(Nc4ccc(OC)cc4)c3c2s1 [Compound 7i, Methyl 9-(4-methoxyphenylamino)thiazolo[5,4-f]quinazoline-2-carbimidate]
50	COC(=N)c1nc2ccc3ncnc(Nc4ccc(Br)cc4F)c3c2s1 [Compound 9i, Methyl 9-(4-bromo-2-fluorophenylamino)thiazolo[5,4-f]quinazoline-2-carbimidate]
